Measured values reported in patent US20130189186A1, “APOPTOSIS IMAGING AGENTS BASED ON LANTIBIOTIC PEPTIDES” (GE HEALTHCARE LIMITED, priority 2010, published 2013).

Biological target: phosphatidyl ethanolamine
Assay: Biacore affinity for phosphatidyl ethanolamine (POPE/POPC liposomes captured on L1 chip)
Type: binding
Conditions: Biacore 3000, L1 chip, POPE/POPC liposomes (20% PE)
Excerpt: A Biacore 3000 (GE Healthcare, Uppsala) was equipped with an L1 chip. Liposomes made of POPE/POPC (20% PE) were applied for the affinity study using the capture technique recommended by the manufacturer. Each run consisted of activation of the chip surface, immobilization of liposomes, binding of peptide and wash off of both liposomes and peptide (regeneration). Similar applications can be found in Frostell-Karlsson et al [Pharm. Sciences, V.94 (1), (2005)]. Thorough washing of needle, tubing and liquid handling system with running buffer was performed after each cycle.
BIACORE software: The BIACORE control software including all method instructions was applied. A method with commands was also written in the BIACORE Method Definition Language (MDL) to have full control over pre-programmed instructions. BIACORE evaluation software was applied for analysing the sensorgrams. […] The KD for all substances was less than 100 nM.

Kd: ~5 nM
kd: ~8e-05 s⁻¹
Substance: Duramycin
